Our source for the Ki values is BindingDB's records for PubMed 7965790 (University of Nebraska, 1994).

Amino acid sequences for entries named in this document (tags omitted). Residues count along the entry.
UniProt P18871, 16-465: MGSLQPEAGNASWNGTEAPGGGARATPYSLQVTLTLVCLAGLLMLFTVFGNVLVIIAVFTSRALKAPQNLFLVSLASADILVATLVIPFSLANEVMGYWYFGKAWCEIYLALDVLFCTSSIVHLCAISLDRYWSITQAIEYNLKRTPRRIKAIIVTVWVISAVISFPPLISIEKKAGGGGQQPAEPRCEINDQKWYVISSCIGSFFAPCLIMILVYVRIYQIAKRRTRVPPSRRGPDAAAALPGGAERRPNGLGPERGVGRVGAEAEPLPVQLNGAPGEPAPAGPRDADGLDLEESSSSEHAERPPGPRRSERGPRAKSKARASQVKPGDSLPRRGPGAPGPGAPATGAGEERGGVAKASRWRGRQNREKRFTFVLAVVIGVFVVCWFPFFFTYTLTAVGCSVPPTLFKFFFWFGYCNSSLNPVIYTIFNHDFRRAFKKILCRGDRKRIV

SMILES strings stand for the structures.

This experiment addresses Alpha-2A adrenergic receptor (Sus scrofa, UniProt P18871).

For orientation: Ki means the equilibrium dissociation constant of an inhibitor or competing ligand from its target. Low values mean tighter binding, high ones weaker binding.

For the compound `COC(=O)[C@@H]1[C@H]2C[C@H]3c4[nH]c5ccccc5c4CCN3C[C@@H]2CC[C@@H]1O` [yohimbic acid methyl ester], the inhibition constant Ki came to 370 pM.
